The values below come from patent EP0542525B1, “Antithrombotic agents” (ELI LILLY AND COMPANY, priority 1991, dated 1993).

The target of the assay is thrombin (Bos taurus, UniProt P00735). As to the kind of experiment: biochemical.

pKd: −log10 of the molar value.

By pKd is commonly meant the Kd on a negative log10 scale, so that one unit is a factor of ten. Low values mean a large Kd, high ones a small Kd. In the case of `CC(C)(C)OC(=O)N[C@H](Cc1ccccc1)C(=O)N1CC[C@H]1C(=O)N[C@H](C=O)CCCNC(=N)N` [Boc-D-Phe-L-Azt-L-Arg-H, N-(N-t-Butyloxycarbonyl)-D-phenylalanyl-L-azetidinyl-4-arginine aldehyde diacetate], the pKd was 7.81.
In the case of `CC(C)(C)OC(=O)N[C@@H](C(=O)N1CC[C@H]1C(=O)N[C@H](C=O)CCCN=C(N)N)c1ccccc1` [Boc-D-Phg-L-Azt-L-Arg-H, N-(N-t-Butyloxycarbonyl-D-phenylglycyl)-L-azetidinyl-L-arginine aldehyde diacetate], the pKd was 8.17.
